In the series the test system is Vero cells (Monkey Kidney Epithelial Cells).

As for polylysine [PREP 3], the CC50 came out at 560 ± 210 µg/mL and the “maximum nontoxic concentration (assumed)” value turned out to be 0.4 mg/mL.

The values above are taken from US20230270828A1, “COMPOSITION FOR USE IN THE TREATMENT OF VIRAL INFECTIONS” (BICT S.R.L., priority 2020, published 2023).
